According to patent publication US20130197016A1, “DOSING REGIMES FOR THE TREATMENT OF OCULAR VASCULAR DISEASE” (priority 2010, published 2013):

What was measured:
[1] = rat, in vivo
[2] = rat, in vivo; remark: listed apart in the source

Question: Which “Histopathological findings, test article-related changes” value [1] does the source give for `C[C@H]1Cc2c(ncnc2Oc2ccc3c(ccn3C(=O)Nc3cc(C4(C)CC4)n[nH]3)c2)CN1` [Compound 2, 5-((S)-6-Methyl-5,6,7,8-tetrahydro-pyrido[3,4-d]pyrimidin-4-yloxy)-indole-1-carboxylic acid [5-(1-methyl-cyclopropyl)-2H-pyrazol-3-yl]-amide] here?
Answer: no microscopic test article-related changes

Question: What about the “Dose at which increased severity of tubular basophilia and inflammatory infiltrates was present in the kidney” value ([2]; Brown Norway) of the same molecule?
Answer: 30 mg/kg/day

Question: What about the “Doses at which acinar cell atrophy and decreased zymogen granules occurred in the pancreas” value ([2]; Brown Norway) of the same molecule?
Answer: ≥ 10 mg/kg/day

Question: What about the “Doses at which hyalinization/edema of the choroid plexus interstitium and cellular debris affecting small arteries/arterioles were present” value ([2]; Brown Norway) of the same molecule?
Answer: ≥ 10 mg/kg/day

Question: And the “Doses at which single cell necrosis of the exocrine pancreas occurred” value ([2]; Brown Norway)?
Answer: ≥ 3 mg/kg/day

Question: And the “Doses at which test article-related changes occurred in the pancreas” value ([2]; Brown Norway)?
Answer: ≥ 3 mg/kg/day

Question: And the “Doses at which test article-related glomerulopathy was present in the kidney” value ([2]; Brown Norway)?
Answer: ≥ 10 mg/kg/day

Question: And the “Histopathological findings, choroid plexus” value [2]?
Answer: minimal inflammatory infiltrates that were associated with choroid plexus arterioles

Question: What about the “Histopathological findings, kidney” value [2] of the same molecule?
Answer: minimal to mild glomerulopathy

Question: What about the “Histopathological findings, pancreas” value [2] of the same molecule?
Answer: single cell necrosis of pancreatic acinar cells and occasional ductal cells

Question: And the “Safety profile compared to daily dosing, dosing every 2 days or every 4 days” value ([2]; po)?
Answer: improved safety profile
